Biological target: dopamine D2 receptor (Rattus norvegicus, UniProt P61169)
Assay: Radioligand competition assay, affinity at rat D2 receptors ([3H]nemonapride)
Type: binding
Conditions: radioligand [3H]nemonapride

By UniProt entry, the sequences of proteins in these tests, tags left out.
UniProt P61169, whole entry: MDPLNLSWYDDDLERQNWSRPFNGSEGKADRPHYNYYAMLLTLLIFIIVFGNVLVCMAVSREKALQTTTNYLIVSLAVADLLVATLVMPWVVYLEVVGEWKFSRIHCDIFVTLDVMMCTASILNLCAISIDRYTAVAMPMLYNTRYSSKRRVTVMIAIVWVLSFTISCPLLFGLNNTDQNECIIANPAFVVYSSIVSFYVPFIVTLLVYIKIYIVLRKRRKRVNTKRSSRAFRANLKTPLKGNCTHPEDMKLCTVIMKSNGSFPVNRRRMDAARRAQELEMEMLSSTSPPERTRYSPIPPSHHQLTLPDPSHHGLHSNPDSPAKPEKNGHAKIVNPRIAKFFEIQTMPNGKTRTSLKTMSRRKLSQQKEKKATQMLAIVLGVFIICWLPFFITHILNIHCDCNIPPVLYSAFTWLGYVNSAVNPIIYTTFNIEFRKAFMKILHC

- Ki: 1.9 ± 0.5 nM
SMILES: CN1CCc2cccc3c2[C@H]1Cc1ccc(O)c(O)c1-3 [Compound 1a]
